Measurements published in publication PMC4015959, “The Structural and Functional Basis of Catalysis Mediated by NAD(P)H:acceptor Oxidoreductase (FerB) of Paracoccus denitrificans” (PLoS ONE, 2014).

system: reduced nicotinamide adenine dinucleotide; test: purified protein, by the assay type; details: pH 7.4; 10.0 °C

In order of falling Km:
1. FerBHis6-R80M (Paracoccus denitrificans PD1222; R80M)  780 ± 280 µM
2. FerBHis6-G115I (Paracoccus denitrificans PD1222; G115I)  630 ± 70 µM
3. FerBHis6-R80L (Paracoccus denitrificans PD1222; R80L)  580 ± 150 µM
4. FerBHis6-E77M (Paracoccus denitrificans PD1222; E77M)  420 ± 160 µM
5. FerBHis6-G115F (Paracoccus denitrificans PD1222; G115F)  410 ± 90 µM
6. FerBHis6-R80K (Paracoccus denitrificans PD1222; R80K)  350 ± 80 µM
7. FerBHis6-E77L (Paracoccus denitrificans PD1222; E77L)  250 ± 30 µM
8. FerBHis6-E77A (Paracoccus denitrificans PD1222; E77A)  180 ± 30 µM
9. FerBHis6-G118F (Paracoccus denitrificans PD1222; G118F)  85 ± 6 µM
10. FerBHis6-R95E (Paracoccus denitrificans PD1222; R95E)  70 ± 9 µM
11. FerBHis6-S113A (Paracoccus denitrificans PD1222; S113A)  60 ± 20 µM
12. FerBHis6-Y78A (Paracoccus denitrificans PD1222; Y78A)  40 ± 10 µM
13. FerBHis6-G118I (Paracoccus denitrificans PD1222; G118I)  38 ± 3 µM
14. FerBHis6-E77K (Paracoccus denitrificans PD1222; E77K)  30 ± 8 µM
15. FerBHis6-R80E (Paracoccus denitrificans PD1222; R80E)  30 ± 3 µM
16. FerBHis6 (Paracoccus denitrificans PD1222)  22 ± 2 µM
17. FerBHis6-R95A (Paracoccus denitrificans PD1222; R95A)  20 ± 2 µM

In order of falling kcat:
1. FerBHis6 (Paracoccus denitrificans PD1222)  258 s⁻¹
2. FerBHis6-Y78A (Paracoccus denitrificans PD1222; Y78A)  196 s⁻¹
3. FerBHis6-R95A (Paracoccus denitrificans PD1222; R95A)  146 s⁻¹
4. FerBHis6-G118F (Paracoccus denitrificans PD1222; G118F)  77 s⁻¹
5. FerBHis6-S113A (Paracoccus denitrificans PD1222; S113A)  76.7 s⁻¹
6. FerBHis6-R95E (Paracoccus denitrificans PD1222; R95E)  21.1 s⁻¹
7. FerBHis6-E77A (Paracoccus denitrificans PD1222; E77A)  17.9 s⁻¹
8. FerBHis6-G118I (Paracoccus denitrificans PD1222; G118I)  12 s⁻¹
9. FerBHis6-R80K (Paracoccus denitrificans PD1222; R80K)  9.5 s⁻¹
10. FerBHis6-E77M (Paracoccus denitrificans PD1222; E77M)  2.5 s⁻¹
11. FerBHis6-G115F (Paracoccus denitrificans PD1222; G115F)  2.2 s⁻¹
12. FerBHis6-G115I (Paracoccus denitrificans PD1222; G115I)  1.7 s⁻¹
13. FerBHis6-E77K (Paracoccus denitrificans PD1222; E77K)  0.75 s⁻¹
14. FerBHis6-R80M (Paracoccus denitrificans PD1222; R80M)  0.302 s⁻¹
15. FerBHis6-R80E (Paracoccus denitrificans PD1222; R80E)  0.275 s⁻¹
16. FerBHis6-R80L (Paracoccus denitrificans PD1222; R80L)  0.142 s⁻¹
17. FerBHis6-E77L (Paracoccus denitrificans PD1222; E77L)  0.072 s⁻¹

In order of falling kcat/Km:
1. FerBHis6 (Paracoccus denitrificans PD1222)  1.17e+07 M⁻¹ s⁻¹
2. FerBHis6-R95A (Paracoccus denitrificans PD1222; R95A)  7.29e+06 M⁻¹ s⁻¹
3. FerBHis6-Y78A (Paracoccus denitrificans PD1222; Y78A)  4.9e+06 M⁻¹ s⁻¹
4. FerBHis6-S113A (Paracoccus denitrificans PD1222; S113A)  1.28e+06 M⁻¹ s⁻¹
5. FerBHis6-G118F (Paracoccus denitrificans PD1222; G118F)  906000 M⁻¹ s⁻¹
6. FerBHis6-G118I (Paracoccus denitrificans PD1222; G118I)  316000 M⁻¹ s⁻¹
7. FerBHis6-R95E (Paracoccus denitrificans PD1222; R95E)  302000 M⁻¹ s⁻¹
8. FerBHis6-E77A (Paracoccus denitrificans PD1222; E77A)  99000 M⁻¹ s⁻¹
9. FerBHis6-R80K (Paracoccus denitrificans PD1222; R80K)  27000 M⁻¹ s⁻¹
10. FerBHis6-E77K (Paracoccus denitrificans PD1222; E77K)  25000 M⁻¹ s⁻¹
11. FerBHis6-R80E (Paracoccus denitrificans PD1222; R80E)  9200 M⁻¹ s⁻¹
12. FerBHis6-E77M (Paracoccus denitrificans PD1222; E77M)  6000 M⁻¹ s⁻¹
13. FerBHis6-G115F (Paracoccus denitrificans PD1222; G115F)  5400 M⁻¹ s⁻¹
14. FerBHis6-G115I (Paracoccus denitrificans PD1222; G115I)  2700 M⁻¹ s⁻¹
15. FerBHis6-R80M (Paracoccus denitrificans PD1222; R80M)  390 M⁻¹ s⁻¹
16. FerBHis6-E77L (Paracoccus denitrificans PD1222; E77L)  290 M⁻¹ s⁻¹
17. FerBHis6-R80L (Paracoccus denitrificans PD1222; R80L)  240 M⁻¹ s⁻¹

same assay, conditions: pH 7.4; 30.0 °C

For “FerBHis6-R95A (Paracoccus denitrificans PD1222; R95A)”, the Km was 33 µM.
